Patent US8959984B2, “Proteome-wide quantification of small molecule binding to cellular target proteins” (priority 2007, dated 2015)
pKi: −log10 of the molar value.

By UniProt entry, the sequences of proteins in these tests, tags left out. Where a name states a change or a piece, a line headed by the entry shows the natural chain unless it says otherwise. Residues count along the entry.
UniProt P29323, 19-1055: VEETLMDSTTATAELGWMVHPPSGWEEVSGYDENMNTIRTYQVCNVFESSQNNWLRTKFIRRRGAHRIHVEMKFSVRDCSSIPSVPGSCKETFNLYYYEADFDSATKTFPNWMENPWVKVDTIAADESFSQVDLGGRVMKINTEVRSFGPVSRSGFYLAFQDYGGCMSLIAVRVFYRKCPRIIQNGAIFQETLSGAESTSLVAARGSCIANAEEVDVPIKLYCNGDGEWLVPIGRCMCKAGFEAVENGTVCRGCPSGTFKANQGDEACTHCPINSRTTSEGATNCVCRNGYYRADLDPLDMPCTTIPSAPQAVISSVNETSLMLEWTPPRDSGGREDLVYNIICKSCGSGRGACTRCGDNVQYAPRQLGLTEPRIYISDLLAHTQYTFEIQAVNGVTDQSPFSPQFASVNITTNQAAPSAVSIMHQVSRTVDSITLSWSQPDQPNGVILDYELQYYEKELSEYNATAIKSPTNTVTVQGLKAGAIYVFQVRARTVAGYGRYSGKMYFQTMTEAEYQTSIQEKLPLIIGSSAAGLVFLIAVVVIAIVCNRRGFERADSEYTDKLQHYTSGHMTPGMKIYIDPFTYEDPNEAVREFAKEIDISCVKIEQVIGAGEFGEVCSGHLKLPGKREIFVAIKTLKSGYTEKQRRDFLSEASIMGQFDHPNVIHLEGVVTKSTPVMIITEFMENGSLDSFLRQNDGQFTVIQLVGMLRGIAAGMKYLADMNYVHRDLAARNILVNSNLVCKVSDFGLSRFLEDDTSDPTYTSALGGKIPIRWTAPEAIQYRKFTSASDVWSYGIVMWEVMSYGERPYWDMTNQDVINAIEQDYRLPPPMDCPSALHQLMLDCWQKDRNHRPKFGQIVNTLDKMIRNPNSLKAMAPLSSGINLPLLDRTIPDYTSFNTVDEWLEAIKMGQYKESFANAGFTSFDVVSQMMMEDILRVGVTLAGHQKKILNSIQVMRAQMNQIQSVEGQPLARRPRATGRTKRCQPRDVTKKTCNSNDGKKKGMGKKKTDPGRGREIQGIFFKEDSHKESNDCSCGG
UniProt Q9Y6I9: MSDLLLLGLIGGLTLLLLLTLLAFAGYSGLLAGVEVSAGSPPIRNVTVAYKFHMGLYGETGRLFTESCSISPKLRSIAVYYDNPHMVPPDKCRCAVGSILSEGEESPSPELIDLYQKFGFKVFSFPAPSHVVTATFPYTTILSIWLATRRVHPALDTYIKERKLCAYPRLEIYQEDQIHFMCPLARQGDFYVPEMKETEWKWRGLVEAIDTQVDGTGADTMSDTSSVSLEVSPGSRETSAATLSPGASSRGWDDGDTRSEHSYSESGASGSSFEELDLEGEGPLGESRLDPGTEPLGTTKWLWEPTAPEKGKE
UniProt Q96BR1: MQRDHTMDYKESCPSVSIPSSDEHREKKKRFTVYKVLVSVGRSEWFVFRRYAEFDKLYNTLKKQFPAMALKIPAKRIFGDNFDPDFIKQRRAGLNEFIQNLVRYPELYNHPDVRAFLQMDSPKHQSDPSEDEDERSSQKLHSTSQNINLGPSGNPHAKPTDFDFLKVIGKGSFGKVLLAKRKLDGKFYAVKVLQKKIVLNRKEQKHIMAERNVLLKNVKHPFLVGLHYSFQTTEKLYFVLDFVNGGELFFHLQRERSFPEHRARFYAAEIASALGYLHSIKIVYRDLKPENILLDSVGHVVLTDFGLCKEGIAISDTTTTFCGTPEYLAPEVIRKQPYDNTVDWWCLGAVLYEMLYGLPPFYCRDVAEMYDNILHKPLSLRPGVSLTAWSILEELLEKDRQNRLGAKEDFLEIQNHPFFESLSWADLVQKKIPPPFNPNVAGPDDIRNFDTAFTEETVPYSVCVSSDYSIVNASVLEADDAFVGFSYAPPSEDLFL

How the values were obtained:
Experiment in all cases: Ki determination for immobilized VI16742: two consecutive incubations, control beads, ligand concentration and incubation time controls (Tables 7, 8)
Assay type in all cases: binding
[1] = target: T1, cellular target proteins in HeLa cell lysate (Homo sapiens, UniProt Q6PHR2); conditions: Ki (VI16742), ULK3 IPI00411818
T1 sequence (Q6PHR2 1-472): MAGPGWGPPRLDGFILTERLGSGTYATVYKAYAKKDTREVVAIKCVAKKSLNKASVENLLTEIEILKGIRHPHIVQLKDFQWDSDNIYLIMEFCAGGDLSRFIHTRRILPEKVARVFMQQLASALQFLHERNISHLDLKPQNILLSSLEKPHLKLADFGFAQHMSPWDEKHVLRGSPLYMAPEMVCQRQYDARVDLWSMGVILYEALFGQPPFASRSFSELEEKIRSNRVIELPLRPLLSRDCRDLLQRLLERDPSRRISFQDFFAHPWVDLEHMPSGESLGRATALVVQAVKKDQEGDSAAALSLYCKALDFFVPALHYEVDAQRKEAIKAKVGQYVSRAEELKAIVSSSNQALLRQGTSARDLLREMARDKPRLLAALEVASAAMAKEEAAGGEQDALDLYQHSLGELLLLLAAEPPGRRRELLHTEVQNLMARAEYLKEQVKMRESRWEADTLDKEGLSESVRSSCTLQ

[2] = target: cellular target proteins in HeLa cell lysate (Homo sapiens, UniProt P29323); conditions: Ki (VI16742), EphB2 (EPHB2) IPI00021275
[3] = target: T2, cellular target proteins in HeLa cell lysate (Homo sapiens, UniProt Q8TBX8); conditions: Ki (VI16742), PIP4K2C IPI00152303
T2 sequence (Q8TBX8 1-421): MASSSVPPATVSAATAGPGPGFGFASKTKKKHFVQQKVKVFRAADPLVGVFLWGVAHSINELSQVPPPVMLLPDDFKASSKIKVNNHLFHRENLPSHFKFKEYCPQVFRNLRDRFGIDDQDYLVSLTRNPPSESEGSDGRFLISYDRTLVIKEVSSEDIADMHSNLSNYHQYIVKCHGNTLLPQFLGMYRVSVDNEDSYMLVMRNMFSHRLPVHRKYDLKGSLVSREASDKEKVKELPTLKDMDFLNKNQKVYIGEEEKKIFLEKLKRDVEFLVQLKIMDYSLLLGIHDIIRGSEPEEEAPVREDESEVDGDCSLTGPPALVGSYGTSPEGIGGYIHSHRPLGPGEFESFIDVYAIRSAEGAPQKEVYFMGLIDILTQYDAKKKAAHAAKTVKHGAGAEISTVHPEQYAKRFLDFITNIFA

[4] = target: cellular target proteins in HeLa cell lysate (Homo sapiens, UniProt Q9Y6I9); conditions: Ki (VI16742), TEX264 IPI00796519
[5] = target: cellular target proteins in HeLa cell lysate (Homo sapiens, UniProt Q96BR1); conditions: Ki (VI16742), SGK3 IPI00655852

`CC(C)n1c(=O)ccc2cnc(Nc3ccc(OCCN)cc3)nc21` [V16742] showed a pKi [1] of 5.46, a pKi [2] of 4.38 and a pKi [3] of 4.82. For the same compound, the pKi [4] was 4.28 and the pKi [5] was 4.75.
